Legend:
Format in all cases: functional, Cavia porcellus
Heart [1] = assay: Heart rate in spontaneously beating Langendorff-perfused guinea pig heart at 10 uM; design: unit not given here
Heart [2] = assay: Ventricular action potential duration in spontaneously beating Langendorff-perfused guinea pig heart at 1 nM
Heart [3] = assay: Ventricular action potential duration in spontaneously beating Langendorff-perfused guinea pig heart at 10 uM

C=C[C@H]1CN2CC[C@H]1C[C@@H]2[C@@H](O)c1ccnc2ccc(OC)cc12 [QUINIDINE]
Activity (Heart [1]): 107 | Activity (Heart [2]): 158 ms | Activity (Heart [3]): 229 ms
